Source: PubChem BioAssay AID1347428 (National Center for Advancing Translational Sciences (NCATS), 2020)
About 290 (0.32%) of roughly 91,000 compounds were called active. The source calls these results inconclusive, neither active nor inactive. The call rests on the fitted dose curve; in most records, active means well fitted inhibition curve with a large enough effect; inconclusive means small, poorly fitted or top-dose-only effect; inactive means no such curve, though single readings can be large or run the other way.

By UniProt entry, the sequences of proteins in these tests, tags left out. Where a name states a change or a piece, a line headed by the entry shows the natural chain unless it says otherwise.
UniProt Q9GZX7: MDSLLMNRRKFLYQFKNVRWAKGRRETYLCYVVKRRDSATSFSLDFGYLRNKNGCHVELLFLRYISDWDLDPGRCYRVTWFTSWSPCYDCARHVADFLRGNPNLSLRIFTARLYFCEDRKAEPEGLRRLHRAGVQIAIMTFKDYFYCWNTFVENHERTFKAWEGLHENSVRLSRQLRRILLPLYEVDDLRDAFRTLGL

Target: Single-stranded DNA cytosine deaminase (Homo sapiens) (UniProt Q9GZX7)
Experiment: Primary qHTS assay for inhibitors of Activation Induced Cytidine Deaminase (AID): AID signal; further: nearly all actives have a fitted effect of over 25% in size
Settings: AID deamination FRET fluorescence, UDG-coupled, 4 h
Excerpt: Assay Provider (PI) Patricia Gearhart Ph.D.
National Institute on Aging
National Institute of Health (NIH), Bethesda, MD
Assay Provider (PI) Rahul Kohli Ph.D.
Perelman School of Medicine
University of Pennsylvania, Philadelphia, PA
Activation-Induced Deaminase (AID) is a cytosine deaminase which converts cytosine into uracil within stretches of ssDNA. The presence of uracil in DNA initiates a cascade of mutagenic DNA repair to introduce point mutations and DNA double strand breaks. Specific targeting of AID to the immunoglobulin heavy chain loci (Igh) promotes mutagenesis in the antibody variable region for somatic hypermutation (SHM) or switch regions leading to class switch recombination (CSR). […]
A FRET based analysis of cytosine deamination, was developed to identify potential inhibitors of AID catalytic activity. This screen has two signal output, Read 1 evaluates the AID inhibition response. The second readout (Read 2) evaluates UDG response and is uses as a counterscreen to exclude false positive inhibitors. […]
9a; Detection; fluorescence (Read 1: AID); EnVision (PerkinElmer) plate reader, 540 excitation and 590 emission filters
9b; Detection; fluorescence (Read 2: UDG); EnVision (PerkinElmer) plate reader, 560 excitation and 665 emission filters […]
9a; Fluorescence signal (column label AID) was read using the EnVision plate reader. […]
Potency means the concentration at half of the fitted maximal effect.

SMILES | Potency
CN(CCCl)Cc1cc(Cl)c(NC2=NCCN2)c(Cl)c1 | inconclusive: 79.4 µM
